In test [1] the target is T1, Beta-1 adrenergic receptor (Cavia porcellus, UniProt B0FL73). The test is described as follows: The compound was tested in vitro for its ability to block Beta-1 adrenergic receptor in guinea pig right atria. The conditions noted are these: read-out: pA2 (converted).
Test [2] has as its target T1, Beta-1 adrenergic receptor. Kind of test: Ability to block Beta-1 adrenergic receptor in guinea pig right atria preparation at a duration of 40 min. The format is functional. The conditions noted are these: read-out: pA2 (converted).

Protein sequences, listed by entry. Tags and fused reporters are not part of them.
UniProt B0FL73, whole entry: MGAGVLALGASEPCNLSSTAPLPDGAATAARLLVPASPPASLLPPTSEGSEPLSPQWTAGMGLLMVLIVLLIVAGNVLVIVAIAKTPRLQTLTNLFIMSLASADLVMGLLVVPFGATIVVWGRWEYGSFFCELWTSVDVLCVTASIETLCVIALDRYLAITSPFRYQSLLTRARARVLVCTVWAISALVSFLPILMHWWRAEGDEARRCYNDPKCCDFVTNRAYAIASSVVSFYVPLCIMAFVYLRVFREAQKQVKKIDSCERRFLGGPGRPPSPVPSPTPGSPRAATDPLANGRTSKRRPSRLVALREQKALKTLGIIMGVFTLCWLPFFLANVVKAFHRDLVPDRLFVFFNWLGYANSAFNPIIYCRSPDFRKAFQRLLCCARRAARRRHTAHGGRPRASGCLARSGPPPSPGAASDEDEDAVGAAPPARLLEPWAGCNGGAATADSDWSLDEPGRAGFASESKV

With `COC(=O)c1ccccc1OCC(O)CNCCc1ccc(OC)c(OC)c1` (configuration not stated), in test [1], the Kb is 0.00501 µM.
`COC(=O)CCc1ccc(OCC(O)CNC(C)(C)C)cc1` (configuration not stated): in test [2], the Kb was 0.1 µM.

For the origin of these results see ChEMBL document CHEMBL1121978, “Ultra-short-acting beta-adrenergic receptor blocking agents. 2. (Aryloxy)propanolamines containing esters on the aryl function” (J Med Chem, 1982).
